# Reference: IntAct's records for PubMed 35512704
# B1: RAC-alpha serine/threonine-protein kinase (Homo sapiens), P31749 (parent)
# chain: MSDVAIVKEGWLHKRGEYIKTWRPRYFLLKNDGTFIGYKERPQDVDQREAPLNNFSVAQCQLMKTERPRPNTFIIRCLQWTTVIERTFHVETPEEREEWTTAIQTVADGLKKQEEEEMDFRSGSPSDNSGAEEMEVSLAKPKHRVTMNEFEYLKLLGKGTFGKVILVKEKATGRYYAMKILKKEVIVAKDEVAHTLTENRVLQNSRHPFLTALKYSFQTHDRLCFVMEYANGGELFFHLSRERVFSEDRARFYGAEIVSALDYLHSEKNVVYRDLKLENLMLDKDGHIKITDFGLCKEGIKDGATMKTFCGTPEYLAPEVLEDNDYGRAVDWWGLGVVMYEMMCGRLPFYNQDHEKLFELILMEEIRFPRTLGPEAKSLLSGLLKKDPKQRLGGGSEDAKEIMQHRFFAGIVWQHVYEKKLSPPFKPQVTSETDTRYFDEEFTAQMITITPPDQDDSMECVDSERRPHFPQFSYSASGTA
# Variants of: B1
# Details: with ezh2_human EZH2, Q15910
row,Variant,effect of a mutation on the interaction
1,MSDVAIVKEGWLHKRGKYIKTWRPRYFLLKNDGTFIGYKERPQDVDQREAPLNNFSVAQCQLMKTERPRPNTFIIRCLQWTTVIERTFHVETPEEREEWTTAIQTVADGLKKQEEEEMDFRSGSPSDNSGAEEMEVSLAKPKHRVTMNEFEYLKLLGKGTFGKVILVKEKATGRYYAMKILKKEVIVAKDEVAHTLTENRVLQNSRHPFLTALKYSFQTHDRLCFVMEYANGGELFFHLSRERVFSEDRARFYGAEIVSALDYLHSEKNVVYRDLKLENLMLDKDGHIKITDFGLCKEGIKDGATMKTFCGTPEYLAPEVLEDNDYGRAVDWWGLGVVMYEMMCGRLPFYNQDHEKLFELILMEEIRFPRTLGPEAKSLLSGLLKKDPKQRLGGGSEDAKEIMQHRFFAGIVWQHVYEKKLSPPFKPQVTSETDTRYFDEEFTAQMITITPPDQDDSMECVDSERRPHFPQFSYSASGTA [E17K],increasing interaction strength

# Variants of: B1
# Details: with fgf19_human FGF19, O95750
row,Variant,effect of a mutation on the interaction
1,MSDVAIVKEGWLHKRGKYIKTWRPRYFLLKNDGTFIGYKERPQDVDQREAPLNNFSVAQCQLMKTERPRPNTFIIRCLQWTTVIERTFHVETPEEREEWTTAIQTVADGLKKQEEEEMDFRSGSPSDNSGAEEMEVSLAKPKHRVTMNEFEYLKLLGKGTFGKVILVKEKATGRYYAMKILKKEVIVAKDEVAHTLTENRVLQNSRHPFLTALKYSFQTHDRLCFVMEYANGGELFFHLSRERVFSEDRARFYGAEIVSALDYLHSEKNVVYRDLKLENLMLDKDGHIKITDFGLCKEGIKDGATMKTFCGTPEYLAPEVLEDNDYGRAVDWWGLGVVMYEMMCGRLPFYNQDHEKLFELILMEEIRFPRTLGPEAKSLLSGLLKKDPKQRLGGGSEDAKEIMQHRFFAGIVWQHVYEKKLSPPFKPQVTSETDTRYFDEEFTAQMITITPPDQDDSMECVDSERRPHFPQFSYSASGTA [E17K],increasing interaction strength

# Variants of: B1
# Details: with fgfp1_human FGFBP1
row,Variant,effect of a mutation on the interaction
1,MSDVAIVKEGWLHKRGKYIKTWRPRYFLLKNDGTFIGYKERPQDVDQREAPLNNFSVAQCQLMKTERPRPNTFIIRCLQWTTVIERTFHVETPEEREEWTTAIQTVADGLKKQEEEEMDFRSGSPSDNSGAEEMEVSLAKPKHRVTMNEFEYLKLLGKGTFGKVILVKEKATGRYYAMKILKKEVIVAKDEVAHTLTENRVLQNSRHPFLTALKYSFQTHDRLCFVMEYANGGELFFHLSRERVFSEDRARFYGAEIVSALDYLHSEKNVVYRDLKLENLMLDKDGHIKITDFGLCKEGIKDGATMKTFCGTPEYLAPEVLEDNDYGRAVDWWGLGVVMYEMMCGRLPFYNQDHEKLFELILMEEIRFPRTLGPEAKSLLSGLLKKDPKQRLGGGSEDAKEIMQHRFFAGIVWQHVYEKKLSPPFKPQVTSETDTRYFDEEFTAQMITITPPDQDDSMECVDSERRPHFPQFSYSASGTA [E17K],increasing interaction strength

# Variants of: B1
# Details: with gata1_human GATA1, P15976
row,Variant,effect of a mutation on the interaction
1,MSDVAIVKEGWLHKRGKYIKTWRPRYFLLKNDGTFIGYKERPQDVDQREAPLNNFSVAQCQLMKTERPRPNTFIIRCLQWTTVIERTFHVETPEEREEWTTAIQTVADGLKKQEEEEMDFRSGSPSDNSGAEEMEVSLAKPKHRVTMNEFEYLKLLGKGTFGKVILVKEKATGRYYAMKILKKEVIVAKDEVAHTLTENRVLQNSRHPFLTALKYSFQTHDRLCFVMEYANGGELFFHLSRERVFSEDRARFYGAEIVSALDYLHSEKNVVYRDLKLENLMLDKDGHIKITDFGLCKEGIKDGATMKTFCGTPEYLAPEVLEDNDYGRAVDWWGLGVVMYEMMCGRLPFYNQDHEKLFELILMEEIRFPRTLGPEAKSLLSGLLKKDPKQRLGGGSEDAKEIMQHRFFAGIVWQHVYEKKLSPPFKPQVTSETDTRYFDEEFTAQMITITPPDQDDSMECVDSERRPHFPQFSYSASGTA [E17K],increasing interaction strength

# Variants of: B1
# Details: with gna11_human GNA11, P29992
row,Variant,effect of a mutation on the interaction
1,MSDVAIVKEGWLHKRGKYIKTWRPRYFLLKNDGTFIGYKERPQDVDQREAPLNNFSVAQCQLMKTERPRPNTFIIRCLQWTTVIERTFHVETPEEREEWTTAIQTVADGLKKQEEEEMDFRSGSPSDNSGAEEMEVSLAKPKHRVTMNEFEYLKLLGKGTFGKVILVKEKATGRYYAMKILKKEVIVAKDEVAHTLTENRVLQNSRHPFLTALKYSFQTHDRLCFVMEYANGGELFFHLSRERVFSEDRARFYGAEIVSALDYLHSEKNVVYRDLKLENLMLDKDGHIKITDFGLCKEGIKDGATMKTFCGTPEYLAPEVLEDNDYGRAVDWWGLGVVMYEMMCGRLPFYNQDHEKLFELILMEEIRFPRTLGPEAKSLLSGLLKKDPKQRLGGGSEDAKEIMQHRFFAGIVWQHVYEKKLSPPFKPQVTSETDTRYFDEEFTAQMITITPPDQDDSMECVDSERRPHFPQFSYSASGTA [E17K],increasing interaction strength

# Variants of: B1
# Details: with gna13_human GNA13, Q14344
row,Variant,effect of a mutation on the interaction
1,MSDVAIVKEGWLHKRGKYIKTWRPRYFLLKNDGTFIGYKERPQDVDQREAPLNNFSVAQCQLMKTERPRPNTFIIRCLQWTTVIERTFHVETPEEREEWTTAIQTVADGLKKQEEEEMDFRSGSPSDNSGAEEMEVSLAKPKHRVTMNEFEYLKLLGKGTFGKVILVKEKATGRYYAMKILKKEVIVAKDEVAHTLTENRVLQNSRHPFLTALKYSFQTHDRLCFVMEYANGGELFFHLSRERVFSEDRARFYGAEIVSALDYLHSEKNVVYRDLKLENLMLDKDGHIKITDFGLCKEGIKDGATMKTFCGTPEYLAPEVLEDNDYGRAVDWWGLGVVMYEMMCGRLPFYNQDHEKLFELILMEEIRFPRTLGPEAKSLLSGLLKKDPKQRLGGGSEDAKEIMQHRFFAGIVWQHVYEKKLSPPFKPQVTSETDTRYFDEEFTAQMITITPPDQDDSMECVDSERRPHFPQFSYSASGTA [E17K],increasing interaction strength

# Variants of: B1
# Details: with mcl1_human MCL1
row,Variant,effect of a mutation on the interaction
1,MSDVAIVKEGWLHKRGKYIKTWRPRYFLLKNDGTFIGYKERPQDVDQREAPLNNFSVAQCQLMKTERPRPNTFIIRCLQWTTVIERTFHVETPEEREEWTTAIQTVADGLKKQEEEEMDFRSGSPSDNSGAEEMEVSLAKPKHRVTMNEFEYLKLLGKGTFGKVILVKEKATGRYYAMKILKKEVIVAKDEVAHTLTENRVLQNSRHPFLTALKYSFQTHDRLCFVMEYANGGELFFHLSRERVFSEDRARFYGAEIVSALDYLHSEKNVVYRDLKLENLMLDKDGHIKITDFGLCKEGIKDGATMKTFCGTPEYLAPEVLEDNDYGRAVDWWGLGVVMYEMMCGRLPFYNQDHEKLFELILMEEIRFPRTLGPEAKSLLSGLLKKDPKQRLGGGSEDAKEIMQHRFFAGIVWQHVYEKKLSPPFKPQVTSETDTRYFDEEFTAQMITITPPDQDDSMECVDSERRPHFPQFSYSASGTA [E17K],increasing interaction strength

# Variants of: B1
# Details: with myc_human MYC
row,Variant,effect of a mutation on the interaction
1,MSDVAIVKEGWLHKRGKYIKTWRPRYFLLKNDGTFIGYKERPQDVDQREAPLNNFSVAQCQLMKTERPRPNTFIIRCLQWTTVIERTFHVETPEEREEWTTAIQTVADGLKKQEEEEMDFRSGSPSDNSGAEEMEVSLAKPKHRVTMNEFEYLKLLGKGTFGKVILVKEKATGRYYAMKILKKEVIVAKDEVAHTLTENRVLQNSRHPFLTALKYSFQTHDRLCFVMEYANGGELFFHLSRERVFSEDRARFYGAEIVSALDYLHSEKNVVYRDLKLENLMLDKDGHIKITDFGLCKEGIKDGATMKTFCGTPEYLAPEVLEDNDYGRAVDWWGLGVVMYEMMCGRLPFYNQDHEKLFELILMEEIRFPRTLGPEAKSLLSGLLKKDPKQRLGGGSEDAKEIMQHRFFAGIVWQHVYEKKLSPPFKPQVTSETDTRYFDEEFTAQMITITPPDQDDSMECVDSERRPHFPQFSYSASGTA [E17K],increasing interaction strength

# Variants of: B1
# Details: with ikba_human NFKBIA
row,Variant,effect of a mutation on the interaction
1,MSDVAIVKEGWLHKRGKYIKTWRPRYFLLKNDGTFIGYKERPQDVDQREAPLNNFSVAQCQLMKTERPRPNTFIIRCLQWTTVIERTFHVETPEEREEWTTAIQTVADGLKKQEEEEMDFRSGSPSDNSGAEEMEVSLAKPKHRVTMNEFEYLKLLGKGTFGKVILVKEKATGRYYAMKILKKEVIVAKDEVAHTLTENRVLQNSRHPFLTALKYSFQTHDRLCFVMEYANGGELFFHLSRERVFSEDRARFYGAEIVSALDYLHSEKNVVYRDLKLENLMLDKDGHIKITDFGLCKEGIKDGATMKTFCGTPEYLAPEVLEDNDYGRAVDWWGLGVVMYEMMCGRLPFYNQDHEKLFELILMEEIRFPRTLGPEAKSLLSGLLKKDPKQRLGGGSEDAKEIMQHRFFAGIVWQHVYEKKLSPPFKPQVTSETDTRYFDEEFTAQMITITPPDQDDSMECVDSERRPHFPQFSYSASGTA [E17K],increasing interaction strength

# Variants of: B1
# Details: with pdcd1_human PDCD1, Q15116
row,Variant,effect of a mutation on the interaction
1,MSDVAIVKEGWLHKRGKYIKTWRPRYFLLKNDGTFIGYKERPQDVDQREAPLNNFSVAQCQLMKTERPRPNTFIIRCLQWTTVIERTFHVETPEEREEWTTAIQTVADGLKKQEEEEMDFRSGSPSDNSGAEEMEVSLAKPKHRVTMNEFEYLKLLGKGTFGKVILVKEKATGRYYAMKILKKEVIVAKDEVAHTLTENRVLQNSRHPFLTALKYSFQTHDRLCFVMEYANGGELFFHLSRERVFSEDRARFYGAEIVSALDYLHSEKNVVYRDLKLENLMLDKDGHIKITDFGLCKEGIKDGATMKTFCGTPEYLAPEVLEDNDYGRAVDWWGLGVVMYEMMCGRLPFYNQDHEKLFELILMEEIRFPRTLGPEAKSLLSGLLKKDPKQRLGGGSEDAKEIMQHRFFAGIVWQHVYEKKLSPPFKPQVTSETDTRYFDEEFTAQMITITPPDQDDSMECVDSERRPHFPQFSYSASGTA [E17K],increasing interaction strength

# Variants of: B1
# Details: with ppard_human PPARD
row,Variant,effect of a mutation on the interaction
1,MSDVAIVKEGWLHKRGKYIKTWRPRYFLLKNDGTFIGYKERPQDVDQREAPLNNFSVAQCQLMKTERPRPNTFIIRCLQWTTVIERTFHVETPEEREEWTTAIQTVADGLKKQEEEEMDFRSGSPSDNSGAEEMEVSLAKPKHRVTMNEFEYLKLLGKGTFGKVILVKEKATGRYYAMKILKKEVIVAKDEVAHTLTENRVLQNSRHPFLTALKYSFQTHDRLCFVMEYANGGELFFHLSRERVFSEDRARFYGAEIVSALDYLHSEKNVVYRDLKLENLMLDKDGHIKITDFGLCKEGIKDGATMKTFCGTPEYLAPEVLEDNDYGRAVDWWGLGVVMYEMMCGRLPFYNQDHEKLFELILMEEIRFPRTLGPEAKSLLSGLLKKDPKQRLGGGSEDAKEIMQHRFFAGIVWQHVYEKKLSPPFKPQVTSETDTRYFDEEFTAQMITITPPDQDDSMECVDSERRPHFPQFSYSASGTA [E17K],increasing interaction strength
